# Ab-14 heavy chain CDR variants: yeast mating affinities

Target: peptide PDVDLGDISGINAS, taken from heptad repeat 2 (HR2) of SARS-CoV-2 spike.

Ab-14 is the parent antibody, in scFv form: VH, then the linker GGGGSGGGGSGGGGS, then VL. The light chain is unchanged in all variants.
VH: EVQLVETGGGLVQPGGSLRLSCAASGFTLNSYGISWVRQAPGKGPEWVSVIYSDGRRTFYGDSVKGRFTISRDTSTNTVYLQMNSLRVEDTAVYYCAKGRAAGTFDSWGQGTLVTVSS
VL: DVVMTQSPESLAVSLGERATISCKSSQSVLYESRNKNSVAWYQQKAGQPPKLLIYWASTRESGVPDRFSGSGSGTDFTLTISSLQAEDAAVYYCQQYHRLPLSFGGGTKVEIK

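The starting antibody came from a phage panning campaign against this peptide. This is the validation round: designs drawn from the data on random variants, tested in the same kind of assay. Group labels follow the data file (Ctrl: baseline library sampled from a position-specific scoring matrix, with some repeated check sequences; Rand: our label for a block that the file lists under HC and that is probably the random mutants of the ten best first-round binders; En: ensemble of fine-tuned language models; GP: Gaussian process model; GPLM: also part of the Gaussian process libraries; HC: hill climbing; Gen: genetic algorithm; Gibbs: Gibbs sampling; a sequence that several methods proposed may carry one label only). AlphaSeq pools MATa yeast showing the antibodies with MATalpha yeast showing the peptide. Binding brings cells together so that they mate, and sequencing counts the barcode pairs among the diploids. A regression on co-assayed BCL2-family reference pairs converts the normalised counts of each replicate to an apparent Kd. There are six technical replicates.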

Each variant is given by its three heavy chain CDRs, as the data file delimits them; those of the parent are GFTLNSYGIS, VIYSDGRRTFYGDSVK, GRAAGTFDS.
The read-out is the apparent dissociation constant on a log10 scale (nM): the lower, the stronger.
The mean shown is taken over the replicates in which the pair was detected.
"nd" means that the variant was in the library but no mating with the target was seen in any replicate; the authors take this as a sign of poor binding, and no number exists.
The authors' rule: three or more of the six replicates give a measured affinity, fewer mean a poor binder.
A sequence that the file lists under several names has all its replicates pooled.
A sequence measured in both rounds can read differently, since the two assays cover different ranges.
As a blank, each scFv also met three strains without target: over all heavy chain designs, 1% of these pairings were detected, typically at 2.08 and seldom below 0.84.

GFDLNEYGIS | VIYADGKRKFYADSVK | GNTAGTFDV [En_HC]: -0.45 (6 of 6 replicates).
EFTLNSYGIS | VIYSDGRRTFYSDSVK | GEAGGTFDF [GP_HC]: nd (0 of 6 replicates).
GFNLNEYGIS | VIYADGMRTFYADSVK | GEHAGTFDI [En_HC]: -0.38 (6 of 6 replicates).
GFTLNSYGIS | VIYSDGRRTFYGDSVR | GRAAGQFDS [Ctrl]: nd (0 of 6 replicates).
GFTLNEYGIS | VIYSDGRRTFYGDSVK | GRTAGTFIT [GP_HC]: nd (0 of 6 replicates).
GFTLNEYGIS | VIYSDGRRTFYGDSVK | GQIAGTFDQ [GP_HC]: 0.14 (6 of 6 replicates).
GNTLNEYGIS | VIYSDGRRTFYTDSVK | GRVAGTFDS [GP_HC]: 0.08 (6 of 6 replicates).
MFDLNSYGIS | VIYSDGRRTFYGDSVK | GREAGTFDS [GP_Gen]: 1.10 (6 of 6 replicates).
GFDLNEYGIS | VIYADGRRTFYADSVK | GEIAGTFDV [En_HC]: -0.02 (6 of 6 replicates).
GFTLESYGIS | VIYADGKRTFYGDSVK | GRAAGTFDS [GPLM_Gen]: 0.12 (6 of 6 replicates).
HFGLNSYGIS | VIYSDGRRTFYSDSVK | GREAGHFDS [Ctrl]: nd (0 of 6 replicates).
GWDLEHYGIS | VIYADGKRSEYSNAVK | GQQAGTFNT [En_Gibbs]: 0.62 (6 of 6 replicates).
GFTYNSYGIS | VIYSDGCRTFYDDSVK | GQLAGTFDS [Rand]: nd (0 of 6 replicates).
GFTLNSYGIS | VIYSDGRRTFYGDSTK | GRAAGAFDS [Ctrl]: nd (0 of 6 replicates).
GFQLDEVGIS | VIYADGMRTAYADSFK | GNKSTIIGI [En_Gibbs]: nd (0 of 6 replicates).
GFTLNEYGIS | VIYSDGRRTFYKDSVK | GRAAGTFDT [GP_HC]: 0.70 (6 of 6 replicates).
GFDLEDYGIS | VIYADGMRTQYIDSVK | GEQAGTFDL [En_HC]: 0.89 (6 of 6 replicates).
GFDINEYGVS | VIYADGMRTAYTDSVK | GEGKWINLI [En_Gibbs]: nd (0 of 6 replicates).
GFQLNSYGIS | VIYSDGRRTFYIDSVK | GDAAGTFDS [GP_Gibbs]: 1.41 (6 of 6 replicates).
GFDLNEYGIS | VIYADGRRTFYIDSVK | GEIAGTFNV [En_HC]: -0.44 (6 of 6 replicates).
GNDLEEYGIS | VIYADGIRTNYSQNVK | GTNGDTFTQ [En_Gibbs]: nd (0 of 6 replicates).
GFTLNSYGIS | VIYSDPRRTFYSDSVK | GEAGCHFDS [Rand]: nd (0 of 6 replicates).
GFTLNEYGIS | VIYSDGRRTFYGDSVK | GRNAGTFDS [Ctrl+GPLM_Gen]: 0.03 (12 of 12 replicates).
GFDLNSYGIS | VIYSDGRRTFYGDSVK | GRCAGTFNS [GP_HC]: 1.77 (1 of 6 replicates).
GFELNDYGIS | VIYSDGRRTFYQDSVK | GRTAGTFDS [GP_Gen]: 0.13 (6 of 6 replicates).
GQDLNEYGIS | VIYADGLRTAYSNNFK | GVQAGFDQY [En_Gibbs]: nd (0 of 6 replicates).
GFVLNSYGIS | VIYSDGRRTFYGDSVK | GRAAGTFDS [Ctrl]: nd (0 of 6 replicates).
GFDLDEYGIS | VIYADGMRTAYADSVK | GANAGTFDM [En_Gen]: -0.08 (6 of 6 replicates).
GFNLNSYGIS | VIYSDGRRTAYGDSVK | GFGAGYFDS [Ctrl]: nd (0 of 6 replicates).
GFNLNEYGIS | VIYADGRRTFYADSVK | GQIAGTFVV [En_HC]: 1.59 (5 of 6 replicates).
GFTNNSYGIS | VIYSDGRRTAYGDSVK | GRAAGTFDS [Ctrl]: nd (0 of 6 replicates).
GFTLDSYGIS | VIYADGRRTFYGDSVK | GRAAGTFDT [GP_Gen]: 0.18 (6 of 6 replicates).
GFTLNEYGIS | VIYSDGRRTFYTDSVK | GRAAGQFDS [GP_HC]: nd (0 of 6 replicates).
GFTLDSYGIS | VIYSDGRRTFYSDSVK | GKAAGTFDS [GPLM_Gen]: -0.13 (6 of 6 replicates).
GFTLGSYGIH | VIYSDGKRTFYSDSVK | GTAAGTFDT [Ctrl]: 1.05 (5 of 6 replicates).
GFDLNEYGIS | VIYADGMRTFYIDSVK | GEIAGTFNV [En_HC]: -0.78 (6 of 6 replicates).
GFTLNSYGIS | VIYSDGQRTFYADDVK | GRVAGTFDK [GP_Gibbs]: 0.40 (6 of 6 replicates).
GFDLNEYGIS | VIYADGVRTQYIDSVK | GEAAGTFDL [En_HC]: nd (0 of 6 replicates).
GFDLNEYGIS | VIYADGKRTAYIDSVK | GENAGTFDV [En_Gen]: 0.47 (6 of 6 replicates).
GFTLNSYGIS | VIYSDGRRTFYGDSVK | ELHAGTFDS [Ctrl]: nd (0 of 6 replicates).

Extract of 4 entries:

CDR-H1,CDR-H2,CDR-H3,group,mean log10 Kd (nM),seen in
GFTLNEYGIS,VIYSDGRRTFYTDSVK,GRAAGQFDS,GP_HC,nd,0/6
GFDLNEYGIS,VIYADGRRTFYADSVK,GEIAGTFDV,En_HC,-0.02,6/6
GFTLNSYGIS,VIYSDGRRTFYGDSTK,GRAAGAFDS,Ctrl,nd,0/6
GFNLNSYGIS,VIYSDGRRTAYGDSVK,GFGAGYFDS,Ctrl,nd,0/6

Values reported by Li et al. 2023, doi:10.1038/s41467-023-39022-2 (FLAb copy).